pIC50: −log10 of the molar value. Read-outs that look alike come from different tables or passages of the source.
How the values were obtained:
[1] = target: GSK3α (GST-full length GSK3α) (Homo sapiens (Human), UniProt P49840); assay: GSK3α TR-FRET kinase assay; format: biochemical
[2] = target: GSK3b (GST-full length GSK3b) (Homo sapiens (Human), UniProt P49841); assay: GSK3b TR-FRET kinase assay; format: biochemical
[3] = Microsomal stability (MIC), human; conditions: human liver microsomes
[4] = Microsomal stability (MIC), mouse; conditions: mouse liver microsomes
[5] = test system: MDR1-MDCK cell monolayers; assay: MDR1/MDCK assay (blood-brain barrier penetration potential); conditions: 5 μM, pH 7.4, 120 minutes
[6] = read-out: GSK3-A (TR-FRET 1 mM ATP), GMean, IC50, 1 mM ATP, geometric mean
[7] = read-out: GSK3a (100 μM ATP) Average IC50, 100 μM ATP
[8] = read-out: GSK3-B (TR-FRET 1 mM ATP), GMean, IC50, 1 mM ATP, geometric mean
[9] = read-out: GSK3b (100 μM ATP) Average IC50, 100 μM ATP

Protein sequences, listed by entry. Tags and fused reporters are not part of them.
UniProt P49840, whole entry: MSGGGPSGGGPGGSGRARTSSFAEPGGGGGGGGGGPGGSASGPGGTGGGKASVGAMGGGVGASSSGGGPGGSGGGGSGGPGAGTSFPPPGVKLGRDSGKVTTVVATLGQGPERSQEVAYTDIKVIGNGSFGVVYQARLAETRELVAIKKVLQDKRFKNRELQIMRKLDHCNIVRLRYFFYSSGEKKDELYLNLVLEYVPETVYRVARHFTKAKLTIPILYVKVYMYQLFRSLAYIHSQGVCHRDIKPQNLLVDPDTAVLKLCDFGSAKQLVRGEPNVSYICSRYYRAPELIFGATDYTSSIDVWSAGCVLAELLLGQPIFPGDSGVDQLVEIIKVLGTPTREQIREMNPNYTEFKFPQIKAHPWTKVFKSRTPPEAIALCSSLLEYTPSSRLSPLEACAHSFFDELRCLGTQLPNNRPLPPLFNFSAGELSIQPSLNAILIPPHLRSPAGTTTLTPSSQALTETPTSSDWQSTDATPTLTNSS
UniProt P49841, whole entry: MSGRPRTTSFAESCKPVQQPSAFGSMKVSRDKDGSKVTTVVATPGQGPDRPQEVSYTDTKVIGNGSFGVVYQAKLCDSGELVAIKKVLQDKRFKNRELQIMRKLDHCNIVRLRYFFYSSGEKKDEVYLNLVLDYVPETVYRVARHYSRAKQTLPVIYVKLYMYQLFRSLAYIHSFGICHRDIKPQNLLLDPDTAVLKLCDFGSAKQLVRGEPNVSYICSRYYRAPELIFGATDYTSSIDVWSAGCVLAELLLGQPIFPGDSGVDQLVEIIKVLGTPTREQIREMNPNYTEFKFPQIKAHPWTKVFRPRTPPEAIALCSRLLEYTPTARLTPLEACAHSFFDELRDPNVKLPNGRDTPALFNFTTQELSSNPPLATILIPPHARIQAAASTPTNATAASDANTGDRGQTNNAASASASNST

| Compound | pIC50 [1, 6] | pIC50 [1, 7] | pIC50 [2, 8] | pIC50 [2, 9] | Microsome stability (human); in vitro T1/2 [3] [min] | pIC50 ([1]; read-out: GSK3a (10 μM ATP) Average IC50, 10 μM ATP) | pIC50 ([2]; read-out: GSK3b (10 μM ATP) Average IC50, 10 μM ATP) | Microsome stability (mouse); in vitro T1/2 [4] [min] | MDCK permeability (MDR1-MDCK); Mean; Papp Ratio (B − A/A − B) (efflux ratio) [5] | MDCK permeability (MDR1-MDCK); Mean; Papp (A − B) ([5]; A to B) | MDCK permeability (MDR1-MDCK); Mean; Papp (B − A) ([5]; B to A) |
| --- | --- | --- | --- | --- | --- | --- | --- | --- | --- | --- | --- |
| CC(C)(C)Cc1[nH]nc2c1C1(CN(S(=O)(=O)c3ccccc3)C1)C1=C(CC(C)(C)CC1=O)N2 | < 5.30 | 6.36 | 5.30 to 6.00 | 7.18 | 2.27 | – | – | – | – | – | – |
| CC(C)(C)Cc1[nH]nc2c1C1(CN(S(=O)(=O)CC3CC3)C1)C1=C(CC(C)(C)CC1=O)N2 | < 5.30 | 6.02 | 5.30 to 6.00 | 7.26 | 9.978 | 7.29 | 8.52 | 7.685 | – | – | – |
| Cn1ccc(-c2cccc([C@]3(C)C4=C(CC(C)(C)CC4=O)Nc4n[nH]c(CC(C)(C)C)c43)c2)n1 | 5.30 to 6.00 | – | 6.00 to 7.00 | – | – | – | – | – | 138 | 0.43 10^−6 cm/s | 60 10^−6 cm/s |

Source: US20250313563A1, “GLYCOGEN SYNTHASE KINASE 3 INHIBITORS AND USES THEREOF” (The Broad Institute, Inc., priority 2022, published 2025)
